From patent US20260124309A1, “STAT6 DEGRADERS AND USES THEREOF” (Kymera Therapeutics, Inc., priority 2023, published 2026)

Chains of the proteins cited; added tags and fusions are not shown. Residues count along the entry.
UniProt P42226, whole entry: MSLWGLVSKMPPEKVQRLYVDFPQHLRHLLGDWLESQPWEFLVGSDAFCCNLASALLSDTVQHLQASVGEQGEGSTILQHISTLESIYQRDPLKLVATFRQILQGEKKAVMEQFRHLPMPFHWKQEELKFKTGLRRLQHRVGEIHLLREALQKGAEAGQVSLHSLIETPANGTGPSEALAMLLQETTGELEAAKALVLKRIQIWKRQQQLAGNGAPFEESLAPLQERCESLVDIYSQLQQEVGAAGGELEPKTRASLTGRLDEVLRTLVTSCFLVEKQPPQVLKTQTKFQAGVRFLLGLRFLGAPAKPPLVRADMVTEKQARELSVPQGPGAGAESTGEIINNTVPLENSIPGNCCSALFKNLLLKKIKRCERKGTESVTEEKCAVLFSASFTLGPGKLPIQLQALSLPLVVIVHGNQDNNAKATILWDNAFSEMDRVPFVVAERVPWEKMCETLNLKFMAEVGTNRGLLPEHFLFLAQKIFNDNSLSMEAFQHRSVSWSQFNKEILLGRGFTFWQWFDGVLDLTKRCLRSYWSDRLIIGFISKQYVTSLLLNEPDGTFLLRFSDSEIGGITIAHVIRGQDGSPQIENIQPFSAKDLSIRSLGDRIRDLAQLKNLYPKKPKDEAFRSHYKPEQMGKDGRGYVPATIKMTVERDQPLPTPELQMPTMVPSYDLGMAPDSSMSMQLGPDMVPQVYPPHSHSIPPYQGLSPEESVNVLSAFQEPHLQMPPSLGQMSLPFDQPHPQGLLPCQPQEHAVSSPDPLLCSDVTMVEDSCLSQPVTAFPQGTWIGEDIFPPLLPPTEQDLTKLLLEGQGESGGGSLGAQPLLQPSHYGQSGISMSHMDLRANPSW
UniProt P42226, 123-632 limits assumed: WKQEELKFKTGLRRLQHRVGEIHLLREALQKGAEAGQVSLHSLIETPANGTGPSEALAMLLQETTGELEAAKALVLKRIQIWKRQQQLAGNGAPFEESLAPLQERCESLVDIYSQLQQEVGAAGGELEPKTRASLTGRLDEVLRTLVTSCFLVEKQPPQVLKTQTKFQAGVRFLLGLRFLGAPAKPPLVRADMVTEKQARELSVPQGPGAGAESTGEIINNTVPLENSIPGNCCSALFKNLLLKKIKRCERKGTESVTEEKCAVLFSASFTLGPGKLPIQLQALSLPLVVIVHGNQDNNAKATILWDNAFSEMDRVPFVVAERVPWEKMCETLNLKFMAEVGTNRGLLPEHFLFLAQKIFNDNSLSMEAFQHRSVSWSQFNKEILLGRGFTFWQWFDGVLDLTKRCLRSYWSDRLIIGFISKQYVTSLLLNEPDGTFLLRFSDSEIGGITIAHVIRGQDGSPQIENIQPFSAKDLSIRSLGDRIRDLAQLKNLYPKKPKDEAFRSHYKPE

Tests used:
[1] = target: biotinylated truncated STAT6 (123-632)-avi (Homo sapiens, UniProt P42226); assay: STAT6 HTRF binding assay; conditions: read-out: STAT6 HTRF: Average IC50; HTRF binding, 0.15 nM biotinylated truncated STAT6 (123-632)-avi, 20 nM fluorescein-labeled probe
STAT6 = STAT6 (Homo sapiens, UniProt P42226); assay: STAT6 MSD degradation in A549 cells; conditions: for DC50: read-out: STAT6 MSD degradation DC50 (nM) 24 h
Summary of the method: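 A549 cells treated with a 9-point 1:3 series (top up to 10 uM) for 4 to 24 hours at 37° C., then lysed in RIPA. STAT6 quantified by sandwich MSD electrochemiluminescence immunoassay. DC50 and Dmax from four-parameter nonlinear fit, reported as letter-code bins.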

Row | SMILES | IC50 [1] | STAT6 MSD degradation Dmax % 24 h (STAT6) | DC50 (STAT6)
1 | Cc1nn(C2CCC(=O)NC2=O)c2cccc(CCN3CCN(c4ccc(-c5cc(C6=CCCN(C(=O)C(C)C)C6)c(F)c6[nH]c(C(=O)N(C)C)cc56)c(F)c4)CC3)c12 (stereo not shown) | 1000 to 10000 nM | A (A (>90%)) | 1 to 10 nM
2 | CN(C)C(=O)c1cc2c(C3CCC4(CC3)CCN(c3cccc5c3n(C)c(=O)n5C3CCC(=O)NC3=O)CC4)cc(C3=CCCN(C(=O)CCn4cccn4)C3)c(F)c2[nH]1 (stereo not shown) | < 100 nM | A (A (>90%)) | < 1 nM
3 | COc1cc(N2CCN(CCc3cccc4c3n(C)c(=O)n4C3CCC(=O)NC3=O)CC2)ccc1-c1cc(C(=O)N(C)C)cc2sc(C3=CCCN(C(=O)CCc4nccs4)C3)nc12 (stereo not shown) | < 100 nM | B (B (>70-90%)) | 10 to 100 nM
4 | CC(=O)N1CCC=C(c2cc(-c3cc(F)c(C4CCN(c5cccc6c5n(C)c(=O)n6C5CCC(=O)NC5=O)CC4)cc3C)c3cc(C(=O)N(C)C)[nH]c3c2F)C1 (stereo not shown) | 1000 to 10000 nM | A (A (>90%)) | < 1 nM
5 | CC(C)C(=O)N1CCC=C(c2cc(-c3ccc(N4CCN(CCc5cccc6c5n(C)c(=O)n6C5CCC(=O)NC5=O)CC4)cc3OC(F)(F)F)c3cc(C(=O)N(C)C)[nH]c3c2F)C1 (stereo not shown) | 1000 to 10000 nM | A (A (>90%)) | < 1 nM
6 | COc1cc(N2CCN(c3ccc(-c4cc(C5=CCCN(C(=O)CCn6cccn6)C5)c(F)c5[nH]c(C(=O)N(C)C)cc45)c(C#N)c3)CC2)c(F)cc1NC1CCC(=O)NC1=O (stereo not shown) | < 100 nM | A (A (>90%)) | < 1 nM
7 | CN(C)C(=O)c1cc2c(-c3ccc(N4CCC5(CC4)CN(c4ccc(C(=O)NC6CCC(=O)NC6=O)cc4Cl)C5)cc3)cc(C3=CCCN(C(=O)CCn4cccn4)C3)c(F)c2[nH]1 (stereo not shown) | 100 to 1000 nM | B (B (>70-90%)) | 1 to 10 nM
8 | COc1cc(C2CCN(c3ccc(-c4cc(C5=CCCN(C(=O)CCn6cccn6)C5)c(F)c5[nH]c(C(=O)N(C)C)cc45)cc3)CC2)c(F)cc1NC1CCC(=O)NC1=O (stereo not shown) | 100 to 1000 nM | A (A (>90%)) | < 1 nM
9 | CN(C)C(=O)c1cc(-c2cccc(N3CCN(CCc4cccc5c4n(C)c(=O)n5C4CCC(=O)NC4=O)CC3)c2)c2nc(C3=CCCN(C(=O)CCn4cccn4)C3)sc2c1 (stereo not shown) | < 100 nM | – | 10 to 100 nM
10 | CN(C)C(=O)c1cc2c(-c3cc(F)c(N4CCC(c5ccc(NC6CCC(=O)NC6=O)cc5F)CC4)cc3F)cc(C3=CCCN(C(=O)CCn4cccn4)C3)c(F)c2[nH]1 (stereo not shown) | 100 to 1000 nM | A (A (>90%)) | < 1 nM
11 | COc1cc(N2CCN(c3ccc(-c4cc(C5=CCCN(C(=O)CCn6cccn6)C5)c(F)c5[nH]c(C(=O)N(C)C)cc45)c(C4CC4)c3)CC2)c(F)cc1NC1CCC(=O)NC1=O (stereo not shown) | < 100 nM | B (B (>70-90%)) | < 1 nM
12 | CN(C(=O)c1cc2c(-c3ccc(C4CCN(c5ccc(NC6CCC(=O)NC6=O)cc5F)CC4)cc3)cc(C3=CCCN(C(=O)CCn4ccnn4)C3)c(F)c2[nH]1)C1CC1 (stereo not shown) | < 100 nM | B (B (>70-90%)) | 1 to 10 nM
13 | CC(C)C(=O)N1CCC=C(c2cc(-c3ccc(N4CCN(CCc5cccc6c(C7CCC(=O)NC7=O)nn(C)c56)CC4)cc3OC(F)(F)F)c3cc(C(=O)N(C)C)[nH]c3c2F)C1 (stereo not shown) | 1000 to 10000 nM | A (A (>90%)) | 1 to 10 nM
14 | COc1cc(N2CCN(c3ccc(-c4cc([C@@H]5CCCN(C(=O)CCn6cccn6)C5)c(F)c5[nH]c(C(=O)N(C)C)cc45)c(F)c3F)CC2)c(F)cc1NC1CCC(=O)NC1=O (stereo partly shown) | 10000 to 100000 nM | B (B (>70-90%)) | 10 to 100 nM
15 | COc1cc([C@H]2CC[C@H](c3ccc(-c4cc(C5=CCCN(C(=O)CCn6cccn6)C5)c(F)c5[nH]c(C(=O)N(C)C)cc45)cc3)CC2)c(F)cc1NC1CCC(=O)NC1=O (relative stereo) | 1000 to 10000 nM | B (B (>70-90%)) | 1 to 10 nM
16 | COc1cc(C2CCN(c3cccc4c3c(C)nn4C3CCC(=O)NC3=O)CC2)ccc1-c1cc(C2=CCCN(C(C)=O)C2)c(F)c2[nH]c(C(=O)N(C)C)cc12 (stereo not shown) | 100 to 1000 nM | B (B (>70-90%)) | 1 to 10 nM
17 | Cc1cc(C2CCN(c3cccc4c3c(C)nn4C3CCC(=O)NC3=O)CC2)ccc1-c1cc(C2=CCCN(C(=O)CCn3cccn3)C2)c(F)c2[nH]c(C(=O)N(C)C)cc12 (stereo not shown) | < 100 nM | A (A (>90%)) | 1 to 10 nM
18 | CN(C)C(=O)c1cc2c(-c3ccc(C4CCN(c5ccc(C6CCC(=O)NC6=O)cc5F)CC4)cc3)cc([C@@H]3CCCN(C(=O)CCn4cccn4)C3)c(F)c2[nH]1 (stereo partly shown) | 10000 to 100000 nM | B (B (>70-90%)) | 10 to 100 nM
19 | COc1cc(N2CCN(c3cc(F)c(-c4cc([C@@H]5CCCN(C(=O)CCn6cccn6)C5)c(F)c5[nH]c(C(=O)N(C)C)cc45)cc3F)CC2)c(F)cc1NC1CCC(=O)NC1=O (stereo partly shown) | 10000 to 100000 nM | – | > 1000 nM

Row | SMILES | IC50 [1] | STAT6 MSD degradation Dmax % 24 h (STAT6) | DC50 (STAT6)
20 | Cn1c(=O)n(C2CCC(=O)NC2=O)c2cccc(N3CC(C4CCN(c5ccc(-c6cc([C@H]7CCCN(C(=O)CCn8cccn8)C7)c(F)c7[nH]c(C(=O)N8CCC8)cc67)cc5)CC4)C3)c21 (stereo partly shown) | 1000 to 10000 nM | A (A (>90%)) | < 1 nM
21 | CN(C)C(=O)c1cc2c(-c3ccc(N4CCN(CCc5cccc6c(C7CCC(=O)NC7=O)nn(C)c56)CC4)cc3)cc(C3=CCCN(C(=O)CCn4cccn4)C3)c(F)c2s1 (stereo not shown) | 100 to 1000 nM | A (A (>90%)) | 1 to 10 nM
22 | CC(C)C(=O)N1CCC=C(c2cc(-c3ccc(N4CCN(CCc5cccc6c(C7CCC(=O)NC7=O)nn(C)c56)CC4)cc3F)c3cc(C(=O)N(C)C)[nH]c3c2F)C1 (stereo not shown) | 1000 to 10000 nM | A (A (>90%)) | 1 to 10 nM
23 | Cc1cc(C2CCN(c3cccc4c3n(C)c(=O)n4C3CCC(=O)NC3=O)CC2)ccc1-c1cc(C2=CCCN(C(=O)CCn3ccnn3)C2)c(F)c2[nH]ccc12 (stereo not shown) | 10000 to 100000 nM | B (B (>70-90%)) | 1 to 10 nM
24 | CN(C)C(=O)c1cc2c(-c3ccc(C4CCN(c5ccc(NC6CCC(=O)NC6=O)cc5F)CC4)cc3)cc([C@@H]3CCCN(C(=O)CCn4ccnn4)C3)c(F)c2[nH]1 (stereo partly shown) | 1000 to 10000 nM | C (C (>50-70%)) | 10 to 100 nM
25 | COc1cc(N2CCC(c3ccc(-c4cc(C5=CCCN(C(=O)CCn6cccn6)C5)c(F)c5[nH]c(C(=O)N(C)C)cc45)cc3)CC2)c(F)cc1NC1CCC(=O)NC1=O (stereo not shown) | < 100 nM | A (A (>90%)) | 1 to 10 nM
26 | COc1cc(N2CCN(c3cc(F)c(-c4cc(C5=CCCN(C(=O)CCn6ccnn6)C5)c(F)c5[nH]c(C(=O)N(C)C)cc45)cc3F)CC2)c(F)cc1NC1CCC(=O)NC1=O (stereo not shown) | < 100 nM | B (B (>70-90%)) | < 1 nM
27 | COc1cc(N2CCN(c3cc(F)c(-c4cc(C5=CCCN(C(=O)CCn6ccnn6)C5)c(F)c5[nH]ncc45)cc3F)CC2)c(F)cc1NC1CCC(=O)NC1=O (stereo not shown) | 1000 to 10000 nM | B (B (>70-90%)) | 10 to 100 nM
28 | Cc1nn(C2CCC(=O)NC2=O)c2cccc(CCN3CCN(c4ccc(-c5cc(C6=CCCN(C(=O)CCn7cccn7)C6)c(F)c6sc(C(=O)N(C)C)cc56)cc4)CC3)c12 (stereo not shown) | 100 to 1000 nM | A (A (>90%)) | 1 to 10 nM
29 | Cn1c(=O)n(C2CCC(=O)NC2=O)c2cccc(N3CC4(CCN(c5ccc(-c6cc([C@H]7CCCN(C(=O)CCn8cccn8)C7)c(F)c7[nH]c(C(=O)N8CCC8)cc67)cc5)CC4)C3)c21 (stereo partly shown) | 1000 to 10000 nM | A (A (>90%)) | 1 to 10 nM
30 | CC(=O)N1CCC=C(c2cc(-c3ccc(C4CCN(c5cccc6c5n(C)c(=O)n6C5CCC(=O)NC5=O)CC4)cc3C(F)(F)F)c3cc(C(=O)N(C)C)[nH]c3c2F)C1 (stereo not shown) | 100 to 1000 nM | B (B (>70-90%)) | < 1 nM
31 | CN(C)C(=O)c1cc2c(-c3ccc(C4CCN(c5c(F)cc(C6CCC(=O)NC6=O)cc5F)CC4)c(F)c3)cc([C@H]3CCCN(C(=O)CCn4cccn4)C3)c(F)c2[nH]1 (stereo partly shown) | 100 to 1000 nM | A (A (>90%)) | 1 to 10 nM
32 | COc1cc(N2CCN(CCOCCOCCOCCN(C(=O)[C@H]3CCCN(c4cncc5ccccc45)C3)c3ccc(=O)n(CC(=O)O)c3)CC2)ccc1-c1cc(C2=CCCN(C(=O)CCn3ccnn3)C2)c(F)c2[nH]c(C(=O)N(C)C)cc12 | < 100 nM | B (B (>70-90%)) | 10 to 100 nM
33 | COc1cc(C2CCN(c3ccc(NC4CCC(=O)NC4=O)cc3F)CC2)ccc1-c1cc(C2=CCCN(C(=O)CCn3cccn3)C2)c(F)c2[nH]c(C(=O)N(C)C)cc12 (stereo not shown) | < 100 nM | A (A (>90%)) | < 1 nM
34 | Cc1nn(C2CCC(=O)NC2=O)c2cccc(N3CCC(c4ccc(-c5cc(C6=CCCN(C(=O)CCn7cccn7)C6)c(F)c6[nH]c(C(=O)N(C)C)cc56)cc4)CC3)c12 (stereo not shown) | 100 to 1000 nM | A (A (>90%)) | 1 to 10 nM
35 | COc1cc(C2CCN(c3ccc(C4CCC(=O)NC4=O)cc3F)CC2)ccc1-c1cc(C2=CCCN(C(C)=O)C2)c(F)c2[nH]c(C(=O)N(C)C)cc12 (stereo not shown) | 100 to 1000 nM | B (B (>70-90%)) | 1 to 10 nM
36 | Cc1nn(C2CCC(=O)NC2=O)c2cccc(CCN3CCN(c4cc(Cl)c(-c5cc(C6=CCCN(C(=O)C(C)C)C6)c(F)c6[nH]c(C(=O)N(C)C)cc56)cc4F)CC3)c12 (stereo not shown) | 1000 to 10000 nM | A (A (>90%)) | 1 to 10 nM
37 | CC(=O)N1CCC=C(c2cc(-c3cc(F)c(N4CCN(CCc5cccc6c(C7CCC(=O)NC7=O)nn(C)c56)CC4)cc3Cl)c3cc(C(=O)N(C)C)[nH]c3c2F)C1 (stereo not shown) | 10000 to 100000 nM | B (B (>70-90%)) | 1 to 10 nM
